Measured values reported in US20130287807A1, “COMPOUNDS FOR TREATING SYMPTOMS ASSOCIATED WITH PARKINSON'S DISEASE” (priority 2008, published 2013).

Legend:
[1] = tested on: monoclonal antibody (DAEFRH-peptide-specific); assay: Inhibition assay (ELISA): mimotope peptides compete with plate-bound original epitope DAEFRH for recognition by the monoclonal antibody; type: binding, Mice
Source text: Mice are vaccinated with the 6mer peptide DAEFRH (natural N-terminal Aβ42 sequence) linked to the protein bovine serum albumin BSA (to make use of the hapten-carrier-effect), emulsified in CFA (first injection) and IFA (booster injections). DAEFRH-peptide-specific, antibody-producing hybridomas are detected by ELISA (DAEFRH-peptide-coated ELISA plates).
FIGS. 2 and 3 describe the results of inhibition assays performed with mimotope peptides included in and obtained from the 5 libraries (as described in WO 2004/062556). The mimotope peptides compete with the original epitope for recognition by the monoclonal antibody. Original epitope and mimotope peptides contain an additional C at the C-terminus for coupling to a protein carrier (if desired).
After blocking with PBS/BSA 1% (200 μl/well, 12 h, 4° C.), the plates are washed 3× times with PBS/Tween. Then, biotinylated monoclonal antibody (1:2000, 50 μl/well) and peptides (50 μl/well) at 50, 5, 0.5, 0.05, 0.005, and 0.0005 μg/ml are added for 20 min. at 37° C. The plates are washed 3× times with PBS/Tween and are incubated with horseradish peroxidase (HRP)-labeled streptavidin (100 μl/well, 30 min, RT). The plates are washed 5× times with PBS/Tween and are incubated with ABTS+H2O2(0.1% w/v, 10 to 45 min) and the reaction is stopped with citric acid followed by photometric evaluation (wavelength 405 nm). […]

[2] = tested on: full length Aβ and/or fragments thereof; assay: Immune response elicited by using AD mimotopes: detection of Aβ; type: in vivo; set-up: key: +: All peptides listed in table 1 mount specific immune reactions against full length Aβ and/or fragments thereof
Source text: In the following Table further examples of the immune response elicited by using AD mimotopes are described. All peptides listed in table 1 mount specific immune reactions against full length Aβ and/or fragments thereof.

CC(C)C[C@H](NC(=O)[C@H](CCC(=O)O)NC(=O)[C@H](CCCCN)NC(=O)[C@@H](N)CC(=O)O)C(=O)N[C@@H](CCCNC(=N)N)C(=O)N[C@@H](CS)C(=O)O [Peptide 1238, DKELR]
inhibition of binding of the monoclonal antibody to the original epitope ([1]; competition ELISA, plate-bound DAEFRH-C-BSA, text to FIGS. 2-9): block epitope recognition
Inhibitory capacity of mimotopes ([1]; summary Tables 1 and 2 (Examples 2, 3)): strong
Detection of Aβ [2]: +
